Assay results published in BindingDB's records for patent US10221162 (Amgen, 2019).
pEC50: −log10 of the molar value.

Biological target: T1, Apelin receptor (Homo sapiens, UniProt P35414)
T1 sequence (P35414 whole entry): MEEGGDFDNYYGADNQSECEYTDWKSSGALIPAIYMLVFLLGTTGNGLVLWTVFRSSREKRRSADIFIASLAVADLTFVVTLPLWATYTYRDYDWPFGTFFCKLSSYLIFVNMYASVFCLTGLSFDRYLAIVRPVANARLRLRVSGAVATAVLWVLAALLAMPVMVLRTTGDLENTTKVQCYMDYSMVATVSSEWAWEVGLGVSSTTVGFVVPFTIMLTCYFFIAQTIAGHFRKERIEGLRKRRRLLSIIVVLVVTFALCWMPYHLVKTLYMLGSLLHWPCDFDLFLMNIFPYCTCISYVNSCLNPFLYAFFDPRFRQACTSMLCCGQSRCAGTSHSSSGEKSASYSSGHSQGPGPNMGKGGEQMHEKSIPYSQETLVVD
Assay: [35S]GTPgammaS Binding Assay
Method: A GTPγS binding assay was performed on membranes prepared from CHO cells stably expressing human APJ receptor. The optimum experimental conditions for the concentrations of GDP, MgCl2, and NaCl in the assay buffer were initially determined. The assay was performed in assay buffer [20 mM HEPES, pH 7.5, 5 mM MgCl2, and 0.1% (w/v) BSA with 200 mM NaCl, 3 μM GDP] and membranes expressing human APJ receptor/well along with WGA PS beads. The reaction was initiated by addition of 0.2 nM [35S]GTPγS (Perkin Elmer Life and Analytical Sciences, Waltham USA) in the absence or presence of various ligands and incubated at RT for 90 min.

**Q.** With `C/C=C(/C)B1OC(C)(C)C(C)(C)O1` [US10221162, Example 671.0] as the molecule, how does the pEC50 read?
**A.** 8.04
